Experimental data as given in PubChem BioAssay (NCI).
This is a selection; strong and weak results do not stand in their true shares. Some salts and complexes are drawn in separate pieces, as the source files them; their charges need not balance. The source holds several records for some structures; these can differ, active in one and inactive in another. The source made the active and inactive calls. No stated cut-off is given here; in the data, active means growth inhibition above about 70%; inactive means the rest.

Experiment: NCI Yeast Anticancer Drug Screen. Data for the sgs1 strain (AID 173);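 further: 0% = growth of vehicle-only control cultures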
Settings: S. cerevisiae sgs1 mutant, active compounds read high
Method: Growth inhibition of yeast strains with defined genetic alterations is measured as a screen for potential anti-cancer activity. Selected strains with alterations in DNA damage repair or cell cycle control were exposed to compounds and growth inhibition was measured relative to vehicle treated controls. The strain used in this assay is sgs1

SMILES | growth inhibition (at 1.2 µM) | growth inhibition (at 3.7 µM) | growth inhibition (at 11.0 µM) | growth inhibition (at 33.0 µM) | growth inhibition (at 100.0 µM)
Cc1ccc2ccc3ccc4ccccc4c3c2c1.O=C1c2cc([N+](=O)[O-])ccc2-c2c1cc([N+](=O)[O-])cc2[N+](=O)[O-] | inactive: 0% | inactive: 1% | inactive: 5% | inactive: 13% | inactive: 29%
COc1ccccc1N.O=[N+]([O-])c1cc([N+](=O)[O-])cc([N+](=O)[O-])c1 | inactive: 2% | inactive: 14% | inactive: 64% | active: 99% | active: 99%
Cc1c2ccccc2cc2ccccc12.O=[N+]([O-])c1cc([N+](=O)[O-])c(O)c([N+](=O)[O-])c1 | inactive: -2% | inactive: 4% | inactive: 20% | active: 72% | active: 96%
O=[N+]([O-])C(F)(COCC(O)CO)[N+](=O)[O-] (centres undefined) | inactive: 13% | inactive: 24% | inactive: 54% | active: 79% | active: 94%
[Au+].[N-]=[N+]=N.c1ccc([PH+](c2ccccc2)c2ccccc2)cc1 | inactive: 12% | active: 97% | – | active: 96% | active: 92%
[Au+].[Au+].c1ccc([PH+](c2ccccc2)c2ccccc2)cc1.c1ccc([PH+](c2ccccc2)c2ccccc2)cc1.n1n[n-]c(-c2nnn[n-]2)n1 | inactive: 39% | inactive: 66% | active: 98% | active: 99% | active: 99%
Cc1cc2ccccc2cc1C.O=[N+]([O-])c1cc([N+](=O)[O-])cc([N+](=O)[O-])c1 | inactive: 1% | inactive: 1% | inactive: 7% | inactive: 26% | active: 88%
Nc1ccccc1.O=[N+]([O-])c1cc([N+](=O)[O-])cc([N+](=O)[O-])c1 | inactive: 2% | inactive: 10% | inactive: 52% | active: 99% | active: 99%
[Au].[C-]#N.[C-]#N | inactive: 16% | inactive: 31% | inactive: 31% | inactive: 35% | inactive: 38%
